From PubChem BioAssay
Shown are actives, neighbours in structure and some others; about 2.1% of the full set was active somewhere.
MITF act: MITF TRPM1 promoter activation in melanoma cells; AID 588334; 0.75% of 300,000 active; SK-MEL-5 TRPM1-promoter luciferase, 24 h; % of positive control, neutral wells = 0; activation, % at 12.5 µM;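 active = mean activation of at least 80% with every replicate also reaching 80%; inconclusive = mean reaches 80% but some replicate falls short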;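 note: 0% = neutral control wells and 100% = parthenolide positive control wells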
miR122 inh: blocks miR-122 activity in Huh7 sensor cells | Huh7 miR-122 Renilla luciferase sensor, 48 h; neutral wells = 0, positive control = 100 | activation (reporter increase), % at 12.5 µM | 0.3% of 340,000 active;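 active = mean replicate activation score at least 90 and every replicate individually at or above 90; inconclusive = only one of the two criteria met; inactive = neither criterion met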;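 note: higher luciferase means less miR-122 activity so hits act as miR-122 inhibitors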
Wnt act: activates Wnt/beta-catenin signaling in a reporter cell assay; activation, % at 9.35 µM; 1.2% of 300,000 active; activator, plate reader; in the data active = activation above about 30%, passing the limit was not always enough; inconclusive = no clear call, values can overlap the other calls;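 note: 0% = neutral control wells and 100% = positive control wells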
MITF TRPM1 inh: inhibitors of MITF-driven TRPM1 promoter in melanoma cells | SK-MEL-5 TRPM1 promoter luciferase, 24 h | inhibition, % at 12.5 µM | 0.83% of 330,000 active | AID 488899;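 active = mean inhibition across replicates of 60% or more, whatever share of single replicates reaches that level; inconclusive = some that reach 60%, reason not given; inactive = mean inhibition across replicates below 60%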
UUG fidelity: modulators of yeast start codon fidelity, primary screen, whole organism, S. cerevisiae, single point, plate reader; S. cerevisiae UUG-firefly luciferase reporter, luminescence/redox ratio; activity score, % at 18.7 µM; actives 0.13% (n = 350,000); AID 602363, 2012;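 active = replicate mean at a twofold rise or more, about +100% in these data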;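 also: firefly luciferase made from a UUG start codon reports start codon fidelity; reporter light over untreated wells divided by growth signal over untreated wells; some hits fall short of that in this replicate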
PGC1a acetyl inh: modulators of PGC1a acetylation. inhibition, % at 15.6 µM. 0.17% of 350,000 active. U2OS PGC1a acetylation, AlphaScreen anti-acetyl-lysine; with virally co-expressed GCN5 acetyltransferase;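 active = every replicate shows inhibition of at least 40%; inconclusive = mean inhibition at least 40% but some replicate below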;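 note: 0% = neutral control wells and 100% = positive control wells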
The depositor's hits bear a star; u = inconclusive; x = no result given; + = active, no number; [ ] = another dose, or the depositor's remark.

MITF act	miR122 inh	Wnt act	MITF TRPM1 inh	UUG fidelity	PGC1a acetyl inh	Molecule
-85	2	1	85*	25	6	CCN1CCN(c2ccc(S(=O)(=O)N3CCCCC3)cc2NC(=O)c2ccc([N+](=O)[O-])s2)CC1
-88	-10	4	89*	8	-7	CCN1CCN(c2ccc(S(=O)(=O)N3CCCCC3)cc2NC(=O)/C=C/c2ccc(Cl)cc2)CC1
x	6[16.7 µM]	x	x	-28	1	C[C@H]1CN([C@@H](C)CO)C(=O)c2cccc(NC(=O)Nc3ccccc3)c2O[C@@H]1CN(C)C(=O)NC1CCCCC1
-11	13	54*	14	-25	-1	COc1ccc(N=Cc2nc(-c3ccccc3)oc2OC(=O)c2ccccc2)cc1
-10	-2	x	12	x	-11	CC(=O)Oc1oc(-c2ccccc2)nc1C=Nc1ccccc1
73	x	50*	-71	x	x	COc1ccc2oc(C(=O)Nc3nccs3)c(C)c2c1
x	1	21	x	-3	x	CCOc1ccc2oc(C(=O)Nc3ccc(C)cn3)c(C)c2c1
30	10	69*	-27	-13	7	CCOc1ccc2oc(C(=O)Nc3nccs3)c(C)c2c1
-102	8	x	102*	-23	22	COC1=CC(=O)c2ccccc2C1=O
-48	-57	-2	54	-20	-107	COC1=CC(=O)C=C(OC)C1=O
8	127*	0	-7	-12	-8	O=S(=O)(NCCc1ccc(F)cc1)c1cc(C(F)(F)F)ccc1Br
x	x	x	x	-3	-15	CO[C@@H]1CN(C)C(=O)c2cc(NS(=O)(=O)c3ccc(Cl)cc3)ccc2OC[C@@H](C)N(C)C[C@H]1C
x	x	-3	78*	x	-13	CCCCC[n+]1ccn(C2=C([O-])c3ccccc3C(=O)/C2=N\S(=O)(=O)c2ccc(Cl)cc2)c1
x	x	1	58	x	-11	CCCC[n+]1ccn(C2=C([O-])c3ccccc3C(=O)/C2=N\S(=O)(=O)c2ccc(Cl)cc2)c1
x	0[16.7 µM]	x	x	4	-3	O=C(C[C@H]1CC[C@H]2[C@@H](COC[C@@H](O)CN2C(=O)c2ccccc2F)O1)N1CCOCC1
-74	x	-2	75*	x	x	COC1=C(c2ccccc2)C(=O)c2ccccc2C1=O
-58	x	-9	64*	x	x	O=C(C1=C(c2ccccc2)C(=O)c2ccccc2C1=O)c1ccccc1
-5	-3	x	7	x	94*	CC1CCc2sc(C(=O)Nc3nnc(SCc4ccc(F)cc4)s3)cc2C1 (stereo unspecified)
-71	10	x	72*	-3	-8	CCOC(=O)c1sc(NC(=O)c2cc3c(s2)CCC(C)C3)nc1C (stereo unspecified)
101*	x	40*	-100	x	x	CC1CCc2sc(C(=O)NCC3CCCO3)cc2C1 (stereo unspecified)
9	x	6	-15	x	x	O=C(NCC1CCCO1)c1cc2c(s1)CCC2 (stereo unspecified)
u	x	x	-73	x	x	COC(=O)c1sc(NC(=O)c2cc3c(s2)CCCC3)nc1C
x	x	x	x	3	-18	CN(C)C(=O)c1cccc(-c2ccc([C@@H]3[C@@H](C#N)N(C(=O)C4CCCCC4)[C@H]3CO)cc2)c1
x	x	x	x	x	-15	COc1ccc2c3c(n(C)c2c1)[C@H](CO)N(Cc1ccccc1F)CC31CCN(C(=O)C2CCC2)CC1

Copied from the list.
O=C(NCC1CCCO1)c1cc2c(s1)CCC2 (stereo unspecified) @ Wnt act = 6
CN(C)C(=O)c1cccc(-c2ccc([C@@H]3[C@@H](C#N)N(C(=O)C4CCCCC4)[C@H]3CO)cc2)c1 @ PGC1a acetyl inh = -18

Other records:
MITF act	miR122 inh	Wnt act	MITF TRPM1 inh	UUG fidelity	PGC1a acetyl inh	Molecule
x	-11	x	68*	-20	x	O=S1(=O)C=C(Sc2nc3cc(Cl)ccc3o2)c2ccccc21
x	x	x	x	x	5	C[C@@H]1CN([C@@H](C)CO)C(=O)c2cc(NC(=O)c3ccccc3)ccc2O[C@@H](C)CCCCO[C@H]1CN(C)S(=O)(=O)c1cn(C)cn1
-21	-2	2	18	8	x	O=C(N/N=C/c1ccc([N+](=O)[O-])o1)C1CCCC1
-82	1	22	84*	-1	-3	O=[N+]([O-])c1ccc(/C=[N+](\[O-])[C@@H]2CCCC[C@@H]2/[N+]([O-])=C/c2ccc([N+](=O)[O-])o2)o1
x	x	x	x	x	5	CO[C@@H]1CN(C)C(=O)c2ccc(NC(=O)C3CC3)cc2OC[C@@H](C)N(C(=O)c2ccncc2)C[C@H]1C
+	-4	-1	x	-5	x	Fc1ccccc1OCCCCN1CCCCC1
11	12	-1	-8	-14	6	Clc1ccccc1OCCCCN1CCCCC1
x	25[16.7 µM]	x	x	12	-4	COc1cccc(NC(=O)C[C@H]2CC[C@@H]3[C@H](COc4ccc(NC(=O)c5ccccc5F)cc4C(=O)N3C)O2)c1
111*	2	15	-110	-35	1	COc1ccccc1NC(=O)Nc1ccc(C(=O)N2CCCCC2)cc1
106*	19	17	-104	-4	-14	O=C(Nc1ccc(C(=O)N2CCCCC2)cc1)Nc1cccc(Cl)c1
x	x	x	x	x	17	CO[C@@H]1CN(C)C(=O)c2ccc(NS(=O)(=O)c3cn(C)cn3)cc2OC[C@H](C)NC[C@H]1C
x	-2[16.7 µM]	x	x	x	-2	CNC[C@H]1OCCCC[C@H](C)Oc2ccc(NC(=O)Nc3c(C)noc3C)cc2C(=O)N([C@@H](C)CO)C[C@@H]1C
39	-1	68*	-38	-25	-9	Cc1ccc(/C=N\Nc2nc3ccc(Cl)cc3[nH]2)o1
x	-8	31*	x	-14	-1	C(=N\NCc1ccccc1)/c1ccc2ncccc2c1
u	2	12	-84	6	-13	COc1ccc(/C=N/Nc2nc3ccccc3[nH]2)cc1OC
-29	x	x	29	x	x	Cc1cc(=O)[nH]c(N/N=C/c2ccccn2)n1

Retrieved one by one from above, 2 records:
MITF act	miR122 inh	Wnt act	MITF TRPM1 inh	UUG fidelity	PGC1a acetyl inh	Molecule
u	2	12	-84	6	-13	COc1ccc(/C=N/Nc2nc3ccccc3[nH]2)cc1OC
106*	19	17	-104	-4	-14	O=C(Nc1ccc(C(=O)N2CCCCC2)cc1)Nc1cccc(Cl)c1

Remaining list, next part
MITF act	miR122 inh	Wnt act	MITF TRPM1 inh	UUG fidelity	PGC1a acetyl inh	Molecule
-78	6	-13	80*	-26	10	O=c1cnnc(N/N=C/c2ccccn2)[nH]1
x	-14	8	-4	-16	49*	C(=N\Nc1nc2ccccc2[nH]1)/c1ccc2ncccc2c1
x	-12[16.7 µM]	x	x	-4	-2	CC(=O)N(C)C[C@@H]1Oc2ncc(-c3ccc(C)cc3)cc2C(=O)N([C@H](C)CO)C[C@@H]1C
x	8[16.7 µM]	x	x	-20	-1	COCC(=O)Nc1ccc2c(c1)C(=O)N(C)[C@H]1CC[C@H](CC(=O)NCc3ccccc3F)O[C@H]1CO2
82*	-14	7	-83	-21	-1	c1ccc2c(c1)CC/C2=N/Nc1nc2ccccc2[nH]1
13	x	53*	-4	x	x	Fc1ccccc1-c1ccc(/C=N/Nc2nc3ccccc3[nH]2)o1
x	-22	3	-9	0	8	C(=N\Nc1nc2ccccc2[nH]1)/c1cccc2nccnc12
30	1	33*	-35	-25	-44	BrC(=C\c1ccccc1)/C=N/Nc1nc2ccccc2[nH]1
-82	x	21	83*	x	x	C(=N\Nc1nc2ccccc2[nH]1)/c1ccccn1
-5	1	0	5	x	6	CC(C)(C)C1CCC(=NNc2nc3ccccc3[nH]2)CC1 (stereo unspecified)
-2	x	15	9	x	x	CCCCn1c(/C=N/Nc2nc3ccccc3[nH]2)nc2ccccc21

Structures above printed as active in PGC1a acetyl inh.
MITF act	miR122 inh	Wnt act	MITF TRPM1 inh	UUG fidelity	PGC1a acetyl inh	Molecule
-5	-3	x	7	x	94*	CC1CCc2sc(C(=O)Nc3nnc(SCc4ccc(F)cc4)s3)cc2C1 (stereo unspecified)
x	-14	8	-4	-16	49*	C(=N\Nc1nc2ccccc2[nH]1)/c1ccc2ncccc2c1
